We go through 1 molecule from the Kinase Knowledgebase extract (Sharma et al. 2016).

By UniProt entry, the sequences of proteins in these tests, tags left out.
UniProt P00533, whole entry, looked up: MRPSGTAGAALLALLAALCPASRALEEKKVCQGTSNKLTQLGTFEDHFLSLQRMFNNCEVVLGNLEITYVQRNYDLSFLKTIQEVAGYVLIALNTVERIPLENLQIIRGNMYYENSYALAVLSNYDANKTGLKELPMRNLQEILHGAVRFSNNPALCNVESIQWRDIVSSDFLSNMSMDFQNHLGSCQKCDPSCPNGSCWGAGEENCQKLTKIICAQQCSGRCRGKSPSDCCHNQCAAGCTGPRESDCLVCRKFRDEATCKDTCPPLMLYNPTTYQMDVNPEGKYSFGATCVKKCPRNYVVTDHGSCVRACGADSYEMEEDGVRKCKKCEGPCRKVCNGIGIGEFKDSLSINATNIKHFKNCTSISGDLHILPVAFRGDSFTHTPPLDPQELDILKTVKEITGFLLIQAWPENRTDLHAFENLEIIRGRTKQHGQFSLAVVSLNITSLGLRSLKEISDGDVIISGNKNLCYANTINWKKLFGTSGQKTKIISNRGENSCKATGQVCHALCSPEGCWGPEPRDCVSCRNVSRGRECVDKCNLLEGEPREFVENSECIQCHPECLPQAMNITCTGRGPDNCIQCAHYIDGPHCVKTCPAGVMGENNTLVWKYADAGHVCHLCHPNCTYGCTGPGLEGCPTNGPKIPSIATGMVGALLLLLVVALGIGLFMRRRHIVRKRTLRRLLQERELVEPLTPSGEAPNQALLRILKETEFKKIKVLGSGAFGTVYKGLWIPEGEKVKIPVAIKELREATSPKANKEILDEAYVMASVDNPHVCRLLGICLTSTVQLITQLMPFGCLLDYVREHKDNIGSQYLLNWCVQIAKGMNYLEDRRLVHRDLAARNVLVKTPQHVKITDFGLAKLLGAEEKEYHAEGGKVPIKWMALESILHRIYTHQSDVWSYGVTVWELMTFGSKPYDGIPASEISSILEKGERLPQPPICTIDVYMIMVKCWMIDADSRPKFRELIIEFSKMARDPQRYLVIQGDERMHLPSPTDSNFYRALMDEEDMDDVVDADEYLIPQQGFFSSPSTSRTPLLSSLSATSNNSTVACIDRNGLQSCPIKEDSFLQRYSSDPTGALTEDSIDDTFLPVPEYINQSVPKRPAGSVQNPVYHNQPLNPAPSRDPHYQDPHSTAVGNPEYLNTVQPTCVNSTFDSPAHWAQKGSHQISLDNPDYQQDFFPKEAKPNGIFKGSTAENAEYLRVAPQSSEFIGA

The experiment has as its target EGFR (human) (UniProt P00533). The note with it: a431.

“And” between values parts separate entries of the source, which are not always exact repeats. Equal entries are not always repeated.

As usually defined, the IC50 is the point on the concentration scale where inhibition reaches its midpoint. A high value points to weaker potency. Consider `CCOc1cc2ncc(C#N)c(Nc3cccc(Br)c3)c2cc1NC(=O)/C=C/CN1CCOCC1`, for which the IC50 was 0.102 µg/mL and 0.044 µg/mL.
